ChEMBL document CHEMBL1123179, “4-Amino-2-(substituted methyl)-2-butenoic acids: substrates and potent inhibitors of gamma-aminobutyric acid aminotransferase” (J Med Chem, 1986)

Legend:
NCCCC(=O)O [1] = assay: (§1) Compound was tested for the inhibitory effect against Gamma-amino-N-butyrate transaminase from pig brain, activity expressed as Km; details: Sus scrofa
NC/C=C(\CF)C(=O)O = assay: as §1; details: Sus scrofa
NCCCC(=O)O [2] = details: Bacteria

Row | Substance | Km (NCCCC(=O)O [1]) [µM] | Km (NC/C=C(\CF)C(=O)O) [µM] | Km (NCCCC(=O)O [2]) [µM]
1 | 4-aminobutyrate aminotransferase, mitochondrial (Sus scrofa), P80147 | 1300 | 130 | 
2 | 4-aminobutyrate aminotransferase, mitochondrial (Homo sapiens), P80404 |  |  | 1400
